Literature values as cited in US9095152B2, “Method for disinfecting, sanitizing, and packaging ready-to-eat produce” (dated 2015).

Tested on: Microbial counts
Settings: chlorine alone

chlorine
log reduction in Microbial counts: 1- to 2 log
